Results reported in patent publication US9492460B2, “Carbazole compounds useful as bromodomain inhibitors” (Bristol-Myers Squibb Company, priority 2013, dated 2016).

These compounds were tested against bromodomain BRD4 (44-168), BRD4 (333-460), and BRD4 (1-477 or 44-460) (Homo sapiens, UniProt O60885) (assay: Time Resolved Fluorescence Resonance Energy Transfer (TR-FRET) binding assay). Conditions: read-out: FRET BRD4 IC50; one of the FRET assays described.

IC50, < 50 nM:
Cc1noc(C)c1-c1cc(C(N)=O)c2c3ccc(C(C)(C)O)cc3n(C(CCC(F)(F)F)c3ccccc3C(F)(F)F)c2c1 (single isomer, unassigned)
Cc1noc(C)c1-c1cc(C(N)=O)c2c3ccc(C(C)(C)O)cc3n(C(CCC(F)(F)F)c3ccccc3Cl)c2c1 (single isomer, unassigned)
Cc1noc(C)c1-c1cc(C(N)=O)c2c3ccc(C(C)(C)O)cc3n(C(CCC(F)(F)F)c3ccccn3)c2c1 (single isomer, unassigned)
Cc1noc(C)c1-c1cc(C(N)=O)c2c3ccc(C(C)(C)O)cc3n(C(c3c(F)cc(F)cc3F)C3CCOCC3)c2c1 (single isomer, unassigned)
Cc1noc(C)c1-c1cc(C(N)=O)c2c3ccc(C(C)(C)O)cc3n(C(c3c(F)cccc3F)C3CCOCC3)c2c1 (single isomer, unassigned)
Cc1noc(C)c1-c1cc(C(N)=O)c2c3ccc(C(C)(C)O)cc3n(C(c3ccc(F)cc3F)C3CCOCC3)c2c1 (single isomer, unassigned)
Cc1noc(C)c1-c1cc(C(N)=O)c2c3ccc(C(C)(C)O)cc3n(C(c3ccccc3F)C3CCOCC3)c2c1 (single isomer, unassigned)
